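Where inhibition never reached the appropriate level, the endpoint shown equals the highest concentration tested. Otherwise, values were interpolated linearly from a five-concentration, 48-hour dose response in 96-well plates. GI50 marks 50% less growth. The concentration for full growth arrest is given as TGI.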
Columns and labels:
Assay in all cases: DTP human tumour cell line panel, 48 h
786-0 renal = test system: 786-0 renal
A549 NSCLC = test system: A549 NSCLC
ACHN renal = test system: ACHN renal
CAKI-1 renal = test system: CAKI-1 renal
CCRF-CEM leukemia = test system: CCRF-CEM leukemia
COLO 205 colon = test system: COLO 205 colon
DU-145 prostate = test system: DU-145 prostate
EKVX NSCLC = test system: EKVX NSCLC
HCT-116 colon = test system: HCT-116 colon
HCT-15 colon = test system: HCT-15 colon
HL-60(TB) leukemia = test system: HL-60(TB) leukemia
HOP-62 NSCLC = test system: HOP-62 NSCLC
HOP-92 NSCLC = test system: HOP-92 NSCLC
HS 578T breast = test system: HS 578T breast
HT29 colon = test system: HT29 colon
IGROV1 ovarian = test system: IGROV1 ovarian
K-562 leukemia = test system: K-562 leukemia
KM12 colon = test system: KM12 colon
LOX IMVI melanoma = test system: LOX IMVI melanoma
M14 melanoma = test system: M14 melanoma
MALME-3M melanoma = test system: MALME-3M melanoma
MCF7 breast = test system: MCF7 breast
MDA-MB-231 breast = test system: MDA-MB-231 breast
MDA-MB-435 = test system: MDA-MB-435
MOLT-4 leukemia = test system: MOLT-4 leukemia
NCI-H226 lung = test system: NCI-H226 lung
NCI-H23 lung = test system: NCI-H23 lung
NCI-H322M lung = test system: NCI-H322M lung
NCI-H460 lung = test system: NCI-H460 lung
NCI-H522 lung = test system: NCI-H522 lung
NCI/ADR-RES ovarian = test system: NCI/ADR-RES ovarian
OVCAR-3 ovarian = test system: OVCAR-3 ovarian
OVCAR-4 ovarian = test system: OVCAR-4 ovarian
OVCAR-5 ovarian = test system: OVCAR-5 ovarian
OVCAR-8 ovarian = test system: OVCAR-8 ovarian
PC-3 prostate = test system: PC-3 prostate
RPMI-8226 leukemia = test system: RPMI-8226 leukemia
RXF 393 renal = test system: RXF 393 renal
SF-268 CNS = test system: SF-268 CNS
SF-295 CNS = test system: SF-295 CNS
SF-539 CNS = test system: SF-539 CNS
SK-MEL-2 melanoma = test system: SK-MEL-2 melanoma
SK-MEL-28 melanoma = test system: SK-MEL-28 melanoma
SK-MEL-5 melanoma = test system: SK-MEL-5 melanoma
SK-OV-3 ovarian = test system: SK-OV-3 ovarian
SN12C renal = test system: SN12C renal
SNB-19 CNS = test system: SNB-19 CNS
SNB-75 CNS = test system: SNB-75 CNS
SR leukemia = test system: SR leukemia
SW-620 colon = test system: SW-620 colon
T-47D breast = test system: T-47D breast
TK-10 renal = test system: TK-10 renal
U251 CNS = test system: U251 CNS
UACC-257 melanoma = test system: UACC-257 melanoma
UACC-62 melanoma = test system: UACC-62 melanoma
UO-31 renal = test system: UO-31 renal

With `CCOP(=O)(NC(N)=O)OCC` the GI50 (786-0 renal) was > 100 µM, the TGI (786-0 renal) was > 100 µM and the GI50 (A549 NSCLC) was > 100 µM. The TGI (A549 NSCLC) was > 100 µM, the GI50 (ACHN renal) was > 100 µM and the TGI (ACHN renal) was > 100 µM. The GI50 (CAKI-1 renal) was > 100 µM, the TGI (CAKI-1 renal) was > 100 µM and the GI50 (CCRF-CEM leukemia) was > 100 µM. For the same molecule, the TGI (CCRF-CEM leukemia) was > 100 µM, the GI50 (COLO 205 colon) was > 100 µM and the TGI (COLO 205 colon) was > 100 µM. The GI50 (DU-145 prostate) was > 100 µM, the TGI (DU-145 prostate) was > 100 µM and the GI50 (EKVX NSCLC) was > 100 µM. The TGI (EKVX NSCLC) was > 100 µM, the GI50 (HCT-116 colon) was > 100 µM and the TGI (HCT-116 colon) was > 100 µM. The GI50 (HCT-15 colon) was > 100 µM, the TGI (HCT-15 colon) was > 100 µM and the GI50 (HL-60(TB) leukemia) was > 100 µM. For the same molecule, the TGI (HL-60(TB) leukemia) was > 100 µM, the GI50 (HOP-62 NSCLC) was > 100 µM and the TGI (HOP-62 NSCLC) was > 100 µM. The GI50 (HOP-92 NSCLC) was > 100 µM, the TGI (HOP-92 NSCLC) was > 100 µM and the GI50 (HS 578T breast) was > 100 µM. The TGI (HS 578T breast) was > 100 µM, the GI50 (HT29 colon) was > 100 µM and the TGI (HT29 colon) was > 100 µM. The GI50 (IGROV1 ovarian) was > 100 µM, the TGI (IGROV1 ovarian) was > 100 µM and the GI50 (K-562 leukemia) was > 100 µM. The TGI (K-562 leukemia) was > 100 µM, the GI50 (KM12 colon) was > 100 µM and the TGI (KM12 colon) was > 100 µM. For the same molecule, the GI50 (LOX IMVI melanoma) was > 100 µM, the TGI (LOX IMVI melanoma) was > 100 µM and the GI50 (M14 melanoma) was > 100 µM. The TGI (M14 melanoma) was > 100 µM, the GI50 (MALME-3M melanoma) was > 100 µM and the TGI (MALME-3M melanoma) was > 100 µM. The GI50 (MCF7 breast) was > 100 µM, the TGI (MCF7 breast) was > 100 µM and the GI50 (MDA-MB-231 breast) was > 100 µM. The TGI (MDA-MB-231 breast) was > 100 µM, the GI50 (MDA-MB-435) was > 100 µM and the TGI (MDA-MB-435) was > 100 µM. The GI50 (MOLT-4 leukemia) was > 100 µM, the TGI (MOLT-4 leukemia) was > 100 µM and the GI50 (NCI-H226 lung) was > 100 µM. The TGI (NCI-H226 lung) was > 100 µM, the GI50 (NCI-H23 lung) was > 100 µM and the TGI (NCI-H23 lung) was > 100 µM. For the same molecule, the GI50 (NCI-H322M lung) was > 100 µM, the TGI (NCI-H322M lung) was > 100 µM and the GI50 (NCI-H460 lung) was > 100 µM. The TGI (NCI-H460 lung) was > 100 µM, the GI50 (NCI-H522 lung) was > 100 µM and the TGI (NCI-H522 lung) was > 100 µM. The GI50 (NCI/ADR-RES ovarian) was > 100 µM, the TGI (NCI/ADR-RES ovarian) was > 100 µM and the GI50 (OVCAR-3 ovarian) was > 100 µM. For the same molecule, the TGI (OVCAR-3 ovarian) was > 100 µM, the GI50 (OVCAR-4 ovarian) was > 100 µM and the TGI (OVCAR-4 ovarian) was > 100 µM. For the same molecule, the GI50 (OVCAR-5 ovarian) was > 100 µM, the TGI (OVCAR-5 ovarian) was > 100 µM and the GI50 (OVCAR-8 ovarian) was > 100 µM. For the same molecule, the TGI (OVCAR-8 ovarian) was > 100 µM, the GI50 (PC-3 prostate) was > 100 µM and the TGI (PC-3 prostate) was > 100 µM. The GI50 (RPMI-8226 leukemia) was > 100 µM, the TGI (RPMI-8226 leukemia) was > 100 µM and the GI50 (RXF 393 renal) was > 100 µM. For the same molecule, the TGI (RXF 393 renal) was > 100 µM, the GI50 (SF-268 CNS) was > 100 µM and the TGI (SF-268 CNS) was > 100 µM. The GI50 (SF-295 CNS) was > 100 µM, the TGI (SF-295 CNS) was > 100 µM and the GI50 (SF-539 CNS) was > 100 µM. The TGI (SF-539 CNS) was > 100 µM, the GI50 (SK-MEL-2 melanoma) was > 100 µM and the TGI (SK-MEL-2 melanoma) was > 100 µM. For the same molecule, the GI50 (SK-MEL-28 melanoma) was > 100 µM, the TGI (SK-MEL-28 melanoma) was > 100 µM and the GI50 (SK-MEL-5 melanoma) was > 100 µM. The TGI (SK-MEL-5 melanoma) was > 100 µM, the GI50 (SK-OV-3 ovarian) was > 100 µM and the TGI (SK-OV-3 ovarian) was > 100 µM. The GI50 (SN12C renal) was > 100 µM, the TGI (SN12C renal) was > 100 µM and the GI50 (SNB-19 CNS) was > 100 µM. For the same molecule, the TGI (SNB-19 CNS) was > 100 µM, the GI50 (SNB-75 CNS) was > 100 µM and the TGI (SNB-75 CNS) was > 100 µM. The GI50 (SR leukemia) was > 100 µM, the TGI (SR leukemia) was > 100 µM and the GI50 (SW-620 colon) was > 100 µM. The TGI (SW-620 colon) was > 100 µM, the GI50 (T-47D breast) was > 100 µM and the TGI (T-47D breast) was > 100 µM. The GI50 (TK-10 renal) was > 100 µM, the TGI (TK-10 renal) was > 100 µM and the GI50 (U251 CNS) was > 100 µM. The TGI (U251 CNS) was > 100 µM, the GI50 (UACC-257 melanoma) was > 100 µM and the TGI (UACC-257 melanoma) was > 100 µM. The GI50 (UACC-62 melanoma) was > 100 µM, the TGI (UACC-62 melanoma) was > 100 µM and the GI50 (UO-31 renal) was > 100 µM. For the same molecule, the TGI (UO-31 renal) was > 100 µM.

— PubChem BioAssay (NCI)
